Literature values as cited in patent US20040142333A1, “Novel secreted proteins and their uses” (priority 2000, published 2004).

Amino acid sequences for entries named in this document (tags omitted). Residues count along the entry.
UniProt P08254, 100-477, species assumed: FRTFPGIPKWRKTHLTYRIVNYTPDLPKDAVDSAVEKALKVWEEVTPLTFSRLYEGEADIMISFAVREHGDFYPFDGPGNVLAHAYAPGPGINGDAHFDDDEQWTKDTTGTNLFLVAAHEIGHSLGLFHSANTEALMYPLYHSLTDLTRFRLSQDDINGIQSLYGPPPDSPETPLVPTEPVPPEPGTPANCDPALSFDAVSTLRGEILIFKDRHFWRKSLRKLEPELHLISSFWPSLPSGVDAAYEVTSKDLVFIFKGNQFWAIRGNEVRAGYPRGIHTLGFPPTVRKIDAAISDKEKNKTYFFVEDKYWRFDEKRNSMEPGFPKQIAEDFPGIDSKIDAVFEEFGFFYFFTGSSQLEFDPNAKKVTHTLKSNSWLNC

Biological target: MMP-3 (Homo sapiens, UniProt P08254)
Conditions: read-out: Ki against MMP-3

Q: Which Ki does the source give for COc1ccc(S(=O)(=O)N(CC(=O)NO)CC(C)C)cc1 [MMP-3 inhibitor II] here?
A: Its Ki is 130 nM.
